ChEMBL document CHEMBL3351934, “Monocyclic 4-amino-6-(phenylamino)-1,3,5-triazines as inhibitors of human DNA topoisomerase IIα” (Bioorg Med Chem Lett, 2014)

Assays:
HepG2 = experiment: Cytotoxic activity against human HepG2 cells assessed as reduction in cell viability after 24 hrs by MTT assay; type: functional, cell-based
MCF7 = experiment: Cytotoxic activity against human MCF7 cells assessed as reduction in cell viability after 24 hrs by MTT assay; type: functional, cell-based

COc1ccc(Nc2nc(N)nc(CSC(=S)N3CCOCC3)n2)cc1
inhibition (HepG2): Dose-dependent effect | inhibition (MCF7): Dose-dependent effect
